Results: patent publication US20220018852A1, “METHODS AND KITS FOR DETECTING LIVER DYSFUNCTION IN A SUBJECT” (priority 2018, published 2022)

Sequences of proteins named here, by UniProt entry; tags and fusion partners are left off. Residues count along the entry.
UniProt P02768, 25-609: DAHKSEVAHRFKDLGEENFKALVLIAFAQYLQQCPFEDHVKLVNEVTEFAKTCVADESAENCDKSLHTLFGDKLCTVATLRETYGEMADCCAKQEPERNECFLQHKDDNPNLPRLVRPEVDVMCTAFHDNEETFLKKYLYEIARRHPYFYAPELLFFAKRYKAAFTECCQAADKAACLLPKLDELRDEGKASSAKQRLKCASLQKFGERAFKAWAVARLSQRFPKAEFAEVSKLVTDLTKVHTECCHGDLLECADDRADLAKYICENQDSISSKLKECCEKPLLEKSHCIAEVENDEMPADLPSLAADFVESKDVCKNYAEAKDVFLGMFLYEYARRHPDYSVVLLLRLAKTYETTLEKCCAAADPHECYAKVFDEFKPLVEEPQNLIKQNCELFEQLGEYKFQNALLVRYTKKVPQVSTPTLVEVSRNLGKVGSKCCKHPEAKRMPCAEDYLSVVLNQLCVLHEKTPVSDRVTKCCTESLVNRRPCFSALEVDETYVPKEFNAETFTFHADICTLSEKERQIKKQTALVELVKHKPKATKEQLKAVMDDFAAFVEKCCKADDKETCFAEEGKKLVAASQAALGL

Biological target: HSA (Homo sapiens, UniProt P02768)
Experiment: Same binding test with Vialebex commercial albumin solution at 200 mg/mL
Conditions: Vialebex commercial solution of pure HSA

**Q.** For O.O.O.[Cl][Au]([Cl])[Cl] [Au, gold(III) chloride trihydrate], which ligand/HSA retention ratio is on record?
**A.** 150
